{
  "sequences": {"note": "Sequences of proteins named here, by UniProt entry; tags and fusion partners are left off.", "UniProt A5K1A2, entry or part of it": "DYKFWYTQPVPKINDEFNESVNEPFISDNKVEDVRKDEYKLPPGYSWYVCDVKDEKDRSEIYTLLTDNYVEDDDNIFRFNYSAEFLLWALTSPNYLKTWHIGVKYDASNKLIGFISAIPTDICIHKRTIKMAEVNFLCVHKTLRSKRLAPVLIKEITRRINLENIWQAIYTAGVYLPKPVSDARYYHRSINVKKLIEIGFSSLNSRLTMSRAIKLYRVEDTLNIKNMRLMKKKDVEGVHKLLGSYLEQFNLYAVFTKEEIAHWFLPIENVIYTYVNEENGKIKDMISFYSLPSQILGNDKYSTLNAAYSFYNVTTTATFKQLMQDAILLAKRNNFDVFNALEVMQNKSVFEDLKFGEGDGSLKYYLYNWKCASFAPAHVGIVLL"},
  "source": "paper PMC10480161",
  "about": "“Identification of potent and selective N-myristoyltransferase inhibitors of Plasmodium vivax liver stage hypnozoites and schizonts” (Nature Communications, 2023)",
  "target": "PvNMT (Plasmodium vivax, UniProt A5K1A2)",
  "assay": "NMT activity assay (CPM detection of free CoA), PvNMT",
  "settings": "enzyme selectivity, HsNMT IC50/PvNMT IC50",
  "note": "Values joined by “and” are separate entries in the source; they are usually repeats but may differ in a detail not shown here. Equal values may be shown once.",
  "data": [
    {"smiles": "Cc1nn(C)c(C)c1CCOc1cccnc1-c1cccc(N2CCNCC2)c1", "note": "[Compound 12b]", "values": [
      {"measurement": "SI", "value": "259 and 259.2"}
    ]}
  ]
}
